The target of the experiment is purified recombinant CSL (UniProt Q06330, labelled with a RED-NHS protein labelling kit (NanoTemper)). Put plainly: MST.

By UniProt entry, the sequences of proteins in these tests, tags left out. Where a name states a change or a piece, a line headed by the entry shows the natural chain unless it says otherwise.
UniProt Q06330: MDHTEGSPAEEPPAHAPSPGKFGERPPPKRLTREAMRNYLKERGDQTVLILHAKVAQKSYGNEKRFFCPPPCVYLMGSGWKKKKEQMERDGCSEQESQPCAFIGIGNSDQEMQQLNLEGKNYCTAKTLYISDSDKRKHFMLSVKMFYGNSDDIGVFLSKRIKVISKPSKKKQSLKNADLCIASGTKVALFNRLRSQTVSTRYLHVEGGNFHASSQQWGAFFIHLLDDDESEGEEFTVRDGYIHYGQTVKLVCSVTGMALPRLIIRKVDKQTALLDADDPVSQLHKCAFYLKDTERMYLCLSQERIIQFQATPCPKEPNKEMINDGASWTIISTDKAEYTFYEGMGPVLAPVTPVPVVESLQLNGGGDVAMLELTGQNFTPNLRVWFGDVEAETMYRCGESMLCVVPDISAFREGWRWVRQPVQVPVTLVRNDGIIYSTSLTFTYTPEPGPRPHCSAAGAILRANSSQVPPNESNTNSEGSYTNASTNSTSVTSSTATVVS

B1: purified recombinant Ku70 (natural protein)
chain: MSGWESYYKTEGDEEAEEEQEENLEASGDYKYSGRDSLIFLVDASKAMFESQSEDELTPFDMSIQCIQSVYISKIISSDRDLLAVVFYGTEKDKNSVNFKNIYVLQELDNPGAKRILELDQFKGQQGQKRFQDMMGHGSDYSLSEVLWVCANLFSDVQFKMSHKRIMLFTNEDNPHGNDSAKASRARTKAGDLRDTGIFLDLMHLKKPGGFDISLFYRDIISIAEDEDLRVHFEESSKLEDLLRKVRAKETRKRALSRLKLKLNKDIVISVGIYNLVQKALKPPPIKLYRETNEPVKTKTRTFNTSTGGLLLPSDTKRSQIYGSRQIILEKEETEELKRFDDPGLMLMGFKPLVLLKKHHYLRPSLFVYPEESLVIGSSTLFSALLIKCLEKEVAALCRYTPRRNIPPYFVALVPQEEELDDQKIQVTPPGFQLVFLPFADDKRKMPFTEKIMATPEQVGKMKAIVEKLRFTYRSDSFENPVLQQHFRNLEALALDLMEPEQAVDLTLPKVEAMNKRLGSLVDEFKELVYPPDYNPEGKVTKRKHDNEGSGSKRPKVEYSEEELKTHISKGTLGKFTVPMLKEACRAYGLKSGLKKQELLEALTKHFQD
As to B1, the dissociation constant (Kd) amounted to 21 nM.

As a reminder, the Kd is the equilibrium constant for the complex coming apart.

Values taken from PMC6715699 (2019).
